# Yeast mating assay 1: variants of the scFv Ab-14

Source: Engelhart et al. 2022 (doi:10.1038/s41597-022-01779-4), MIT Lincoln Laboratory and A-Alpha Bio; data file from the FLAb repository.

Binding partner: SARS-CoV-2 spike HR2 peptide, sequence PDVDLGDISGINAS.

Parent scFv Ab-14: VH joined to VL by a 15-residue (Gly4Ser)3 linker. Changes lie in the heavy chain CDRs alone.
VH: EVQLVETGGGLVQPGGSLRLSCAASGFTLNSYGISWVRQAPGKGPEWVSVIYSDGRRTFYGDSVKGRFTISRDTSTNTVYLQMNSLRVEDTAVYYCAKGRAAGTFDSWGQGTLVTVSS
VL: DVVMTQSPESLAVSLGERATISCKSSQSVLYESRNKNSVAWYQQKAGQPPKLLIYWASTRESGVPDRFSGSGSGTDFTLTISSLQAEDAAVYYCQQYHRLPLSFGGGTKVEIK

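The starting antibody came from a phage panning campaign against this peptide. In library AAYL49, one, two or three CDR residues were substituted; doubles and triples were drawn at random. In AlphaSeq, yeast of one mating type display the scFv and yeast of the other type display the target. Pairs that bind mate more often; barcode pairs of the diploids are counted by sequencing. Each replicate has its own calibration line, from reference interactions of the BCL2 family. Mating was done three times.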

The parent's heavy chain CDRs are GFTLNSYGIS, VIYSDGRRTFYGDSVK, GRAAGTFDS; each variant's own CDRs replace them letter for letter.
Numbers give log10(Kd / nM), so 0 is 1 nM and 3 is 1 µM. Smaller is tighter.
A pair that was not seen in that replicate is written "nd"; this usually means weak binding, but a binder can also be missed.
As a blank, each scFv also met three strains without target: over library AAYL49, 15% of these pairings were detected, typically at 4.06 and seldom below 2.83.

CDR-H1,CDR-H2,CDR-H3,"replicates, log10 nM"
GFTLNSYGIS,VMYSDGGRTFYGDSVK,GRNAGTFDS,nd nd nd
QFTLNSYGIS,VIYSDGFRTFYGDSVK,GRAAQTFDS,nd nd nd
GFTLNSYGIL,VIYSDGRRTFYGDYVK,GRAAGTPDS,nd nd nd
GFTLNSYGIS,VIYSDGRRTFWGDSVK,GNAAGPFDS,nd nd nd
GFTGNSYGIS,VIYSDFRRTFYGDSVK,GRAAGTFDW,nd nd nd
GATLNSWGIS,VIYSDGRRTNYGDSVK,GRAAGTFDS,nd nd nd
GFTLNSYGIS,VIYSDGVRTFYEDSSK,GRAAGTFDS,nd nd 3.03
GFTLNSYGGS,VIYTDGRRTFYGDSVK,MRAAGTFDS,nd 3.82 3.58
GFTLNSYWIS,VIYSDGQRTFYGDSFK,GRAAGTFDS,nd 3.27 3.85
GFTLNSYGIP,VIYSDGRRTFYGDSVK,IRAAGAFDS,nd nd 4.62
GFTDNSYGIS,VIYSDGRGTFYGDTVK,GRAAGTFDS,4.28 3.18 4.53
GFTLNSYGIS,VINSFGRRTFYGDSVK,GRAAGTFDS,nd nd nd
GFTLNSYGIS,TKYSDGRRTFYGDSVK,ARAAGTFDS,nd nd nd
GNTLNPYGIS,VIYSSGRRTFYGDSVK,GRAAGTFDS,2.78 nd nd
GFELNSYGIS,GIYSDGRRTFYGDQVK,GRAAGTFDS,nd nd nd
EFTLNSYGID,VIYSDGVRTFYGDSVK,GRAAGTFDS,nd nd 4.81
GFTLNSYGIS,VIYSRGRRTFYGNSVK,GRAAGTFDS,nd 3.32 nd
TFTLNSVGIS,VIYSDGRRTFYGDSVK,GRAGGTFDS,nd nd nd
GFTLNSYGIS,VIYSDGRRTSYGDSVK,GDALGTFDS,1.42 1.30 1.53
GFTLNSAGIS,VIYSDGRRTHYGDSVK,GRGAGTFDS,4.64 nd nd
GFTLNYYGIS,VIYSDGRRTFYGDMVK,GRAAGTFWS,nd nd nd
GFTLNSYDIS,VIYSDQHRTFYGDSVK,GRAAGTFDS,nd 4.83 nd
GFTLNSYGIS,VIYSDGRRTFDGDSVK,KRAAGTFGS,nd nd nd
GFTLNSYGIS,VIYSDGRRTFYGDSVK,GRLAGWFRS,nd nd nd
GFVLNSYGIS,VIYSDGRNTFYGDSVK,GRAAGTFVS,nd nd nd
GFTLNSYGIS,VIMSDGRRTEYGDSVD,GRAAGTFDS,4.00 nd 3.71
GFTLNSYGIS,VIYSDGRRTFYGDDVV,GRAAGTFDS,1.49 1.84 1.78
GCTLNSYGIY,VIYSDGRRTFYGDSVK,GRAAGTFQS,nd nd nd
GFTLNSYGIS,VIYADGRRTFYGDSVK,GRDAGTFRS,3.40 2.67 2.80
GGTLNSYGIS,VIYSDGRRTFYGDFVK,GRAAGMFDS,nd nd nd
GFGLPSYGIS,VIISDGRRTFYGDSVK,GRAAGTFDS,nd nd nd
GFTLNVYGIS,VIYSDGRRTFYFDSVK,GRSAGTFDS,nd nd 3.82
GFTLNSYGIS,VIYSQGRRTFYGDSVM,GRFAGTFDS,nd nd nd

Repeated from above, the 4 best binders with a signal in all replicates:

CDR-H1	CDR-H2	CDR-H3	replicates, log10 nM
GFTLNSYGIS	VIYSDGRRTSYGDSVK	GDALGTFDS	1.42 1.30 1.53
GFTLNSYGIS	VIYSDGRRTFYGDDVV	GRAAGTFDS	1.49 1.84 1.78
GFTLNSYGIS	VIYADGRRTFYGDSVK	GRDAGTFRS	3.40 2.67 2.80
GFTDNSYGIS	VIYSDGRGTFYGDTVK	GRAAGTFDS	4.28 3.18 4.53